The numbers were not newly measured in paper PMC5560747, “Computational-experimental approach to drug-target interaction mapping: A case study on kinase inhibitors” (PLoS Computational Biology, 2017), which cites them from elsewhere.

By UniProt entry, the sequences of proteins in these tests, tags left out. Residues count along the entry.
UniProt P35916, 25-1363: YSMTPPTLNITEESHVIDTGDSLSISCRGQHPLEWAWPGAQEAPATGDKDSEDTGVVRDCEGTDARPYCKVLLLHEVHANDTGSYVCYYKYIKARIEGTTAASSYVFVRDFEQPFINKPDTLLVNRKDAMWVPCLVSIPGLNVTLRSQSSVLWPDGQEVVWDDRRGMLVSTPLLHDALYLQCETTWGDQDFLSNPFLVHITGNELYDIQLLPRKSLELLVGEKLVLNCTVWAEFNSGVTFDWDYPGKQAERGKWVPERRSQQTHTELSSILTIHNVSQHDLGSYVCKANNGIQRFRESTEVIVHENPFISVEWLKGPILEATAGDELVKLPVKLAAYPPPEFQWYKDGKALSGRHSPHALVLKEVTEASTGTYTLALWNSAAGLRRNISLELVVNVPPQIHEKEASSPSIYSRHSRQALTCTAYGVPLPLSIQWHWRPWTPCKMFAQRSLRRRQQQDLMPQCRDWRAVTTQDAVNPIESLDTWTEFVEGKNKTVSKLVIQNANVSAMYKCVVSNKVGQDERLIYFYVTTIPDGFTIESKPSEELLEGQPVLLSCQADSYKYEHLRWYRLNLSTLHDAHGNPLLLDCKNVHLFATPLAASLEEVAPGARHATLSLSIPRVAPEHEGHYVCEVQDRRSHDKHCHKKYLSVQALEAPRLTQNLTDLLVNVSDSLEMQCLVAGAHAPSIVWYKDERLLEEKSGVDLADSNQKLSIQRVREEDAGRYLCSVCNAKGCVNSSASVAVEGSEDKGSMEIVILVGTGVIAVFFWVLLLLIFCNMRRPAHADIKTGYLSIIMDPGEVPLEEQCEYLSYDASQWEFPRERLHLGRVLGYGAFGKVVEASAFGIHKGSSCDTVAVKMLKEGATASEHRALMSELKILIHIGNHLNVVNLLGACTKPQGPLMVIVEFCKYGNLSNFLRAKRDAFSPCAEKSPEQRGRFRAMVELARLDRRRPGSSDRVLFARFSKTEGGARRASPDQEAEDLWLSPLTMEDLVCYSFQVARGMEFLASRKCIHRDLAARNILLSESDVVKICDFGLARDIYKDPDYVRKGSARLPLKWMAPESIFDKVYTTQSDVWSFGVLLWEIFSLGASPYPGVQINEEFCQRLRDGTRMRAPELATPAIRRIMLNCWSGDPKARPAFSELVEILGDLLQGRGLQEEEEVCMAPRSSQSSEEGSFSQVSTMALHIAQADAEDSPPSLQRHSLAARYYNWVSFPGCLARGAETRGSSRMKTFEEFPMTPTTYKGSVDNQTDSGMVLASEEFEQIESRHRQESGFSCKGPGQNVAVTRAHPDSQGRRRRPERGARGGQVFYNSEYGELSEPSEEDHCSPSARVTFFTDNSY

Usually IC50 stands for the concentration that gives 50% inhibition.

The target in the series is FLT4 (Homo sapiens, UniProt P35916). As to conditions: cited from earlier work.

`COc1cc2nccc(Oc3ccc(NC(=O)Nc4cc(C)on4)c(Cl)c3)c2cc1OC` [TIVOZANIB, Tivozanib]: for the setting “from ChEMBL, ref PUBMED_ID 25908516”, the “-LOG(PUBLISHED_VALUE)” value was 8.34 M. Further, under “read-out: PUBLISHED_VALUE IC50, from ChEMBL, ref PUBMED_ID 25908516”, the IC50 is 4.55 nM.
